This note sets out measurements from ChEMBL document CHEMBL4840335, “Rational Design and Development of Novel CDK9 Inhibitors for the Treatment of Acute Myeloid Leukemia” (J Med Chem, 2021).

The species named for assay [1] is Homo sapiens. Briefly: Selectivity ratio of IC50 for CDK7 (unknown origin) to IC50 for CDK9/Cyclin T1 (unknown origin).
The species entered for assay [2] is Homo sapiens. Briefly: Selectivity ratio of IC50 for CDK6 (unknown origin) to IC50 for CDK9/Cyclin T1 (unknown origin).
The species entered for assay [3] is Homo sapiens. Briefly: Selectivity ratio of IC50 for CDK2 (unknown origin) to IC50 for CDK9/Cyclin T1 (unknown origin).

For the molecule `Cc1n[nH]c2ccc(-c3cc(N[C@@H](CO)c4ccccc4)cnc3Cl)cc12`, the Ratio IC50 in assay [1] worked out at 30; in assay [2] it was 180; in assay [3], 180.
